Protein sequences, listed by entry. Tags and fused reporters are not part of them.
UniProt P28223, whole entry: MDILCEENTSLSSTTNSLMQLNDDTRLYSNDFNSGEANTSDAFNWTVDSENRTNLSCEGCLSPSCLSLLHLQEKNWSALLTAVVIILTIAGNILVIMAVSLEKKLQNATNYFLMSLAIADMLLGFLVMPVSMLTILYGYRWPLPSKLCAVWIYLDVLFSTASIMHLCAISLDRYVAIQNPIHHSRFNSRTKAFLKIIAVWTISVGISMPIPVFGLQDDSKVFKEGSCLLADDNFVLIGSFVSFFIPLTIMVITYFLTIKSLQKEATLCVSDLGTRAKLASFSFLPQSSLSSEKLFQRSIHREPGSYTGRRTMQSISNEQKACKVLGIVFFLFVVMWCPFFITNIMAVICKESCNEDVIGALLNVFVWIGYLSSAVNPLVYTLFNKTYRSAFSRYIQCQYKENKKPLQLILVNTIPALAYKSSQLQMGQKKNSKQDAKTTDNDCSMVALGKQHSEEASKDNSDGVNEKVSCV
UniProt P08908, whole entry: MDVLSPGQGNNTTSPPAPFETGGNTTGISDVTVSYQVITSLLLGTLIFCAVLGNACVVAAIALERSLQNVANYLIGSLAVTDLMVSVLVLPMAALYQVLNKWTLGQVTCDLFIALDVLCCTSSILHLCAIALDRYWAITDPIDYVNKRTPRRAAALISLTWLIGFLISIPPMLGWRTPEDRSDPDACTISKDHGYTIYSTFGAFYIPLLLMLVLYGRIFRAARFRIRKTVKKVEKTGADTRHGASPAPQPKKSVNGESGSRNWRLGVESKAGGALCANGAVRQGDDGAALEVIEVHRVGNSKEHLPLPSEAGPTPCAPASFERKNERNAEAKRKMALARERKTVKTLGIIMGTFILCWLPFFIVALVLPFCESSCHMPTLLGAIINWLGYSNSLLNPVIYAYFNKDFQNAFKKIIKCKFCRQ

In publication PMC5773950 (British Journal of Pharmacology, 2018):

Assays:
[1] = human
5‐HT2A receptor = 5‐HT2A receptor (Homo sapiens, UniProt P28223); assay: biochemical; assay type: binding
5‐HT1A receptor = 5‐HT1A receptor (Homo sapiens, UniProt P08908); assay: biochemical; assay type: binding
[2] = human; remark: listed apart in the source

What does the source list for `CN1CC[C@]23c4c5ccc(O)c4O[C@H]2C(=O)CC[C@H]3[C@H]1C5` [Hydromorphone]?
WHO database: cases of serotonin syndrome, only suspected cause [1]: 3; WHO database: cases of serotonin syndrome, only suspected cause or among others [1]: 41; Ki (5‐HT2A receptor): > 13 µM; Ki (5‐HT1A receptor): > 17 µM; Medline database: number of published cases of serotonin syndrome [2]: 2
